# PubChem BioAssay AID504558 (Broad Institute, 2011)
# Only a part is listed here, and it is no random draw. Activity calls are given as the source filed them. Cut-off read from the data, not from the text of the source: active = inhibition above about 41%; inconclusive = no clear call, values can overlap the other calls; inactive = below that.
# Test: EBV LMP1-driven NF-kappaB luciferase reporter inhibitors, primary screen, cell-based, luminescence, single point (AID 504558);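 note: 0% = neutral control wells and 100% = reference inhibitor control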
# Conditions: LMP1-induced NF-kappaB luciferase reporter cells, at 12.5 µM, active compounds read high
row,SMILES,inhibition
1,CCC(=O)N(c1ccccc1)C1(COC)CCN(CCc2cccs2)CC1,inactive: -21.8%
2,CCC(=O)N(c1ccccc1)C1(COC)CCN(CCn2nnn(CC)c2=O)CC1,inactive: 7.75%
